## Apparent affinities of Ab-14 variants for a coronavirus HR2 peptide

Values reported by Li et al. 2023, doi:10.1038/s41467-023-39022-2 (FLAb copy).

Target: peptide PDVDLGDISGINAS, taken from heptad repeat 2 (HR2) of SARS-CoV-2 spike.

Ab-14 is the parent antibody, in scFv form: VH, then three GGGGS repeats, then VL. The light chain is unchanged in all variants.
VH: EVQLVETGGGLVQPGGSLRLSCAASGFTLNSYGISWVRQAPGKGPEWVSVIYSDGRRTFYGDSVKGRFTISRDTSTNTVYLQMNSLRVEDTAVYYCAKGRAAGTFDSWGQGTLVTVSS
VL: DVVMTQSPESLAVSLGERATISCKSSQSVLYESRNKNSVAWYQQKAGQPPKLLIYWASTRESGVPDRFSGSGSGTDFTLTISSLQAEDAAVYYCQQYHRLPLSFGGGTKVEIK

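Designed CDR sequences, proposed from the first random library and measured here. Several design methods are mixed in this list. The scFvs were displayed on barcoded MATa yeast, the peptide on MATalpha yeast. Pairs that bind mate more often; barcode pairs of the diploids are counted by sequencing. The ratio of observed to expected reads was calibrated, replicate by replicate, on BCL2-family standards whose Kd was known from biolayer interferometry. Each pool was mated in six replicate cultures.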

Substitutions are numbered in sequence along the VH above, starting at 1 (not Kabat).
This list holds designs with at most six substitutions.
Kd is apparent (estimated from mating counts) and averaged on the log scale over replicates with a signal. Smaller is tighter.
"nd" marks a missing value. The strain was present, yet no cells mated with the target were sequenced in any replicate, which points to weak or no binding.
The list is sorted by this average, lowest first, undetected variants last.
Nonspecific signal, from three strains lacking the peptide, appeared in 1% of pairings of all heavy chain designs, centred on 120 nM (5% of these signals below 7.0 nM); values are not corrected for it.
Of ten entries with the parent sequence, four were seen in most replicates (averages 2.2 nM to 240 nM), three in one and three in none, so single entries are noisy.
The authors' rule: three or more of the six replicates give a measured affinity, fewer mean a poor binder.
Values of this round are not directly comparable with the first-round values of the same sequences.
Some sequences occur more than once in the pool; their replicates are pooled.

Variant T28H/G61Q/R100E showed 180 pM (4 of 6 replicates). Variant T28S/G61T/S63D showed 230 pM (6 of 6 replicates). Variant T28D/S31E/S53A/G61T/R100Q/A101T showed 270 pM (6 of 6 replicates). Variant T28E/G61I/R100S gave 480 pM (6 of 6 replicates). Variant T28E/S31E/S63Q/R100K/A101T gave 1.0 nM (6 of 6 replicates). Variant T28S/S31E/R100S/S107T gave 1.0 nM (6 of 6 replicates). With S31E/G61T/A101T/S107I the result was 1.0 nM (6 of 6 replicates). With T28S/S53A/R100N/S107D the result was 1.1 nM (6 of 6 replicates).

Variant T28N/S31E/G61A/A101F showed 1.2 nM (6 of 6 replicates). Variant T28N/S31Q/T58V/F59A gave 1.2 nM (6 of 6 replicates). Variant T28D/R56K/S63P/A101T gave 1.4 nM (6 of 6 replicates). Variant T28S/G61H/A101E showed 2.0 nM (6 of 6 replicates). For T28Q/S31E/G61I, the assay gave 3.0 nM (3 of 6 replicates). Variant S63D/A102I/T104P showed 4.2 nM (1 of 6 replicates). With T28E/S63D/A101T the result was 6.1 nM (6 of 6 replicates). For G61A/R100S, the assay gave 8.1 nM (11 of 12 replicates).

With G61I/S63D/R100E the result was 9.6 nM (6 of 6 replicates). Variant T28D/T104H/D106N gave 9.9 nM (6 of 6 replicates). Variant G61A/S63D/R100Q/S107K showed 13 nM (6 of 6 replicates). With S31D/R56E/G61C the result was 13 nM (3 of 6 replicates). For L29I/T104S, the assay gave 16 nM (6 of 6 replicates). With R100S the result was 23 nM (6 of 6 replicates). With V64F/R100G/A101E/A102S/S107T the result was 59 nM (1 of 6 replicates). Variant T28H/S63Q/A101T gave 61 nM (3 of 6 replicates).

Variant T28S/S31D/A101E/D106I gave 65 nM (1 of 6 replicates). Variant G61S/G99V/A102G gave 100 nM (1 of 6 replicates). Variant T28E/S31E/A101T/D106W showed 130 nM (1 of 6 replicates). With A101E/G103Q the result was 190 nM (1 of 6 replicates). With R56L/T58E/F59M/R100S/A102M the result was nd (0 of 6 replicates). For S31D/G61I/S63M/R100N, the assay gave nd (0 of 6 replicates). With G26M/T28W/S31E/R100Q/A101T/S107T the result was nd (0 of 6 replicates). For R56S/G61H/R100E/F105Y, the assay gave nd (0 of 6 replicates).

Variant T28M/D106S showed nd (0 of 6 replicates). Variant S31D/A102S/D106V gave nd (0 of 6 replicates). Variant T28A/S35T/S53A/K65A/A102R gave nd (0 of 6 replicates). For T28S/G103A/S107Q, the assay gave nd (0 of 6 replicates). With N30D/D106L the result was nd (0 of 6 replicates). With F59S/D106V the result was nd (0 of 6 replicates). Variant T28E/S31E/F59M/G61T/A101C showed nd (0 of 6 replicates).

Top 6 of the variants detected in all replicates, tightest first:

| changes | Kd (apparent) | seen in |
|---|---|---|
| T28S/G61T/S63D | 230 pM | 6 of 6 |
| T28D/S31E/S53A/G61T/R100Q/A101T | 270 pM | 6 of 6 |
| T28E/G61I/R100S | 480 pM | 6 of 6 |
| T28E/S31E/S63Q/R100K/A101T | 1.0 nM | 6 of 6 |
| T28S/S31E/R100S/S107T | 1.0 nM | 6 of 6 |
| S31E/G61T/A101T/S107I | 1.0 nM | 6 of 6 |